An excerpt weighted towards active compounds, which were near 1.2% of everything screened.
Pemphigus Ab inh = inhibitors of pemphigus antibody binding to human desmoglein-3; P32926; DSG3-coupled beads, scFv-anti-DSG3-GFP binding, flow cytometry; active compounds read low; binding (percent of control), % at 10 µM; actives 0.48% (n = 310,000); AID 588358;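 active = binding more than 3 SD below its plate's average and above zero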;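 note: hits lower antibody fragment binding to DSG3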
Tb MetRS inh = blocks T. brucei methionyl-tRNA synthetase activity. purified T. brucei MetRS, ATP depletion, Kinase-Glo luminescence. inhibition, % at 11.9 µM. actives 0.4% (n = 360,000);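 active = inhibition above a per-plate cutoff of the control wells' mean inhibition plus 3 SD, cut at about 5.5% in these data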;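 note: 0% = DMSO wells median and 100% = median of wells with control inhibitor compound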
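Material: parasite MetRS enzyme / Replication: singlicate, one well per compound / Signal: luminescence of leftover ATP / Schedule: 2 h aminoacylation at 25 °C after 15 min preincubation / Medium: HEPES-MgCl2-KCl buffer plus DTT, spermine, BSA, pyrophosphatase / Doses: 11.9 µM single point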
Rce1 inh = blocks yeast Ras-converting enzyme. Q03530. yeast membranes, quenched prenylated peptide cleavage fluorescence. calls only. actives 0.27% (n = 290,000);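 active = fall in fluorescence gain of 50% or more versus controls, with final raw signal at or below 3038400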;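 note: plate controls were neutral control wells for no effect and wells lacking membranes for full effect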
Yeast UUG start-1 = modulators of start codon recognition fidelity in yeast; AID 602363; activity score, % at 18.7 µM; S. cerevisiae UUG-firefly luciferase reporter, luminescence/redox ratio; 0.13% of 350,000 active;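 active = replicate mean at a twofold rise or more, about +100% in these data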;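 note: firefly luciferase made from a UUG start codon reports start codon fidelity; reporter light over untreated wells divided by growth signal over untreated wells; some hits fall short of that in this replicate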
Arrestin-AP2 inh = blocks beta-arrestin peptide binding to AP2 adaptin | FITC-arrestin peptide / GST-AP2 beads, flow cytometry; AP2 beta2 appendage carries R879A mutation | inhibition, % at 10 µM | actives 0.31% (n = 340,000) | AID 504490;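 active = inhibition above a set limit, near 3 SD of compounds lacking own fluorescence, cut at about 54% in these data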;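 note: plate controls were DMSO wells for no effect and 5 µM unlabelled arrestin peptide for full effect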
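System: GST-AP2 R879A bound to glutathione beads, E. coli-expressed. Also added: 50 nM FITC-arrestin peptide. Schedule: compound with beads 12 min RT, then probe 1 h RT. Signal: bead flow cytometry, FITC channel. Read-out basis: percent response.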
Yeast UUG start-2 = modulators of start codon recognition fidelity in yeast; AID 652061; shares compounds with Yeast UUG start-1; S. cerevisiae UUG-start firefly luciferase, luminescence, 4 h; 100% means double the DMSO signal; activation, % at 38 µM; 540 tested, under 10 active;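 active = signal increase whose fitted curve reaches an absolute level of 40 at a concentration under 10 µM; inactive = activity opposite to the expected increase, or the rest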
Numbers without * were called inactive; i = inactive; / = no result.

| entry | SMILES | Pemphigus Ab inh | Tb MetRS inh | Rce1 inh |
| --- | --- | --- | --- | --- |
| 1 | Cn1nnnc1SCC(=O)c1cccs1 | 108 | -1 | i |
| 2 | Cc1cc(C)c(-n2nnnc2SCC(=O)c2cccs2)c(C)c1 | / | -1 | i |
| 3 | Cc1cccc(C(=O)Nc2cccnc2Cl)c1 | 101 | -2 | / |
| 4 | O=C(Nc1cccnc1Cl)c1cccc(F)c1 | / | / | i |
| 5 | C[C@H](CO)N1C[C@H](C)[C@@H](CN(C)Cc2cccc(F)c2)Oc2ncc(C3=CCCC3)cc2C1=O | / | / | / |
| 6 | C[C@H]1CN([C@@H](C)CO)C(=O)c2cc(NC(=O)CCC(F)(F)F)ccc2O[C@@H]1CN(C)CC1CCCCC1 | / | / | / |
| 7 | Cc1c(C(=O)CN2CCCC(C)(C)C2)c2ccccc2n1C | 101 | -1 | i |
| 8 | CCc1ccc(NC(=O)NCCN2CCCCC2)cc1 | 124 | -1 | i |

| entry | Yeast UUG start-1 | Arrestin-AP2 inh | Yeast UUG start-2 |
| --- | --- | --- | --- |
| 1 | -18 | 7 | / |
| 2 | active | -6 | -3 |
| 3 | 146* | 0 | 1 |
| 4 | / | / | / |
| 5 | 15 | / | / |
| 6 | -4 | / | / |
| 7 | active | 10 | -1 |
| 8 | 108* | 0 | 2 |

Compound profiles, as listed above:
Profile of Cc1cc(C)c(-n2nnnc2SCC(=O)c2cccs2)c(C)c1 : Pemphigus Ab inh: /; Tb MetRS inh: -1; Rce1 inh: i; Yeast UUG start-1: active; Arrestin-AP2 inh: -6; Yeast UUG start-2: -3
Profile of Cc1cccc(C(=O)Nc2cccnc2Cl)c1 : Pemphigus Ab inh: 101; Tb MetRS inh: -2; Rce1 inh: /; Yeast UUG start-1: 146*; Arrestin-AP2 inh: 0; Yeast UUG start-2: 1

Additional structures.
| entry | SMILES | Pemphigus Ab inh | Tb MetRS inh | Rce1 inh |
| --- | --- | --- | --- | --- |
| 9 | CCc1ccc(N2CCN(CCNC(=O)Nc3ccccc3)CC2)cc1 | 97 | 0 | / |
| 10 | C[C@@H](NC(=O)C[C@H]1CC[C@@H](NC(=O)Cc2ccccn2)[C@H](CO)O1)c1ccccc1 | / | / | / |
| 11 | Cc1ccc(N2CC(C(=O)Nc3nnc(SCC(N)=O)s3)CC2=O)cc1 (stereo not given) | 106 | 0 | i |
| 12 | CCN(CC)CC(=O)N1c2ccccc2CCc2ccc(NC(=O)c3cc(OC)c(OC)c(OC)c3)cc21 | 117 | 0 | i |
| 13 | CCN(CC)CC#CC(OC)(c1ccccc1)c1ccccc1 | 94 | 0 | i |
| 14 | C[C@@H]1CN([C@@H](C)CO)C(=O)c2cc(NC(=O)Nc3ccc4c(c3)OCO4)ccc2O[C@H]1CN(C)C(=O)Nc1ccccc1 | / | / | / |
| 15 | Cc1cccc(S(=O)(=O)N2C[C@@H]3[C@H](c4ccccc42)[C@H](CO)N3CC2CCCC2)c1 | / | / | / |
| 16 | NC(=O)CSc1nnc(-c2ccncc2)n1CCc1ccccc1 | 95 | -1 | i |

| entry | Yeast UUG start-1 | Arrestin-AP2 inh | Yeast UUG start-2 |
| --- | --- | --- | --- |
| 9 | -4 | 7 | / |
| 10 | -13 | / | / |
| 11 | 164* | -8 | 0 |
| 12 | active | 10 | 0 |
| 13 | / | -1 | 0 |
| 14 | 8 | / | / |
| 15 | 1 | / | / |
| 16 | 173* | 0 | -2 |

Going on with the list:
| entry | SMILES | Pemphigus Ab inh | Tb MetRS inh | Rce1 inh |
| --- | --- | --- | --- | --- |
| 17 | O=C(CSc1nnc(-c2ccncc2)n1CCc1ccccc1)N1CCCC1 | / | / | i |
| 18 | [N-]=[N+]=Nc1ccccc1C[C@@]1(C(=O)NCCN2CCOCC2)N=C(c2ccc(OCCCO)cc2)O[C@@H]1c1ccccc1N=[N+]=[N-] | / | / | / |
| 19 | C1CN(c2nc3nonc3n3nnnc23)CCO1 | 97 | -1 | i |
| 20 | c1ccc2c(c1)nc(N1CCOCC1)c1nnnn12 | 105 | 0 | i |
| 21 | CC(=O)N(C)C[C@@H]1Oc2cc(-c3ccc(C)cc3)ccc2S(=O)(=O)N([C@H](C)CO)C[C@H]1C | / | / | / |
| 22 | CC(C)[N+](C)(C)CC#CC(O)(c1ccccc1)c1ccccc1 | / | 0 | i |
| 23 | C[N+]1(CC#CC(O)(c2ccccc2)c2ccccc2)CCCC1 | 96 | -1 | i |
| 24 | C[C@@H]1CCCCO[C@H](CN(C)C(=O)NC2CCCCC2)[C@@H](C)CN([C@@H](C)CO)C(=O)c2cc(NS(C)(=O)=O)ccc2O1 | / | / | / |

| entry | Yeast UUG start-1 | Arrestin-AP2 inh | Yeast UUG start-2 |
| --- | --- | --- | --- |
| 17 | / | / | / |
| 18 | 0 | / | / |
| 19 | 442* | 6 | 8 |
| 20 | -18 | 16 | / |
| 21 | 15 | / | / |
| 22 | / | -6 | 7 |
| 23 | / | 9 | 5 |
| 24 | 1 | / | / |

The list goes on.
| entry | SMILES | Pemphigus Ab inh | Tb MetRS inh | Rce1 inh |
| --- | --- | --- | --- | --- |
| 25 | CC(C)c1cn(CC[C@@H]2CC[C@@H](NC(=O)C3CCCC3)[C@H](CO)O2)nn1 | / | / | / |
| 26 | O=C(CCN1CCCCC1)NCC[C@H]1CC[C@H](NC(=O)C2CCCC2)[C@H](CO)O1 | / | / | / |
| 27 | CC(C)c1cn(CC[C@@H]2CC[C@H](NC(=O)C3CCCCC3)[C@H](CO)O2)nn1 | / | / | / |
| 28 | Cc1ccccc1S(=O)(=O)NCC[C@H]1CC[C@@H](NC(=O)C2CCCCC2)[C@@H](CO)O1 | / | / | / |
| 29 | COc1ccccc1S(=O)(=O)N[C@H]1CC[C@H](CCNC(=O)C2CCCC2)O[C@H]1CO | / | / | / |
| 30 | Cc1ccccc1S(=O)(=O)NCC[C@H]1CC[C@H](NC(=O)C2CCCCC2)[C@H](CO)O1 | / | / | / |
| 31 | COc1ccc(S(=O)(=O)N(C)C[C@H]2OCCCC[C@H](C)Oc3ccc(NS(=O)(=O)c4ccc(F)cc4)cc3C(=O)N([C@@H](C)CO)C[C@H]2C)cc1 | / | / | / |
| 32 | O=C(C[C@@H]1C[C@H]2c3cc(NC(=O)Nc4ccc(C(F)(F)F)cc4)ccc3O[C@H]2[C@@H](CO)O1)NCCc1ccccc1 | / | / | / |

| entry | Yeast UUG start-1 | Arrestin-AP2 inh | Yeast UUG start-2 |
| --- | --- | --- | --- |
| 25 | 13 | / | / |
| 26 | 167* | / | i |
| 27 | 100* | / | i |
| 28 | 9 | / | / |
| 29 | 224* | / | i |
| 30 | 211* | / | i |
| 31 | -3 | / | / |
| 32 | -15 | / | / |

Continued.
| entry | SMILES | Pemphigus Ab inh | Tb MetRS inh | Rce1 inh |
| --- | --- | --- | --- | --- |
| 33 | Cc1noc(C)c1S(=O)(=O)N1CCCC(C(=O)Nc2cccnc2)C1 (stereo not given) | 103 | -1 | i |
| 34 | O=C(Cc1ccccc1)NC(NNc1ccccc1)(C(F)(F)F)C(F)(F)F | 111 | 0 | i |
| 35 | CCCc1cc(C(=O)N/N=C/c2ccc(CC)s2)c2ccccc2n1 | 101 | 0 | i |
| 36 | CCc1ccc(/C=N/NC(=O)c2cc(-c3ccncc3)nc3ccccc23)s1 | 102 | 0 | i |
| 37 | COc1cccc(Oc2ccc(OC)cc2C(=O)O)c1 | / | 0 | i |
| 38 | CCOc1ccccc1C(=O)NCC(=O)OCC(=O)NCCc1ccc(S(N)(=O)=O)cc1 | 113 | -2 | i |
| 39 | NS(=O)(=O)c1ccc(CCNC(=O)c2ccccc2OCc2ccc(F)cc2)cc1 | 113 | 0 | i |
| 40 | Cc1ccc(S(=O)(=O)N[C@@H]2C=C[C@@H](CC(=O)N3CCC(Cc4ccccc4)CC3)O[C@H]2CO)cc1 | / | / | / |

| entry | Yeast UUG start-1 | Arrestin-AP2 inh | Yeast UUG start-2 |
| --- | --- | --- | --- |
| 33 | 614* | 9 | -4 |
| 34 | 481* | 15 | 9 |
| 35 | 413* | 22 | 0 |
| 36 | / | -7 | / |
| 37 | 117* | -8 | -17 |
| 38 | 555* | 3 | 1 |
| 39 | -9 | -5 | / |
| 40 | 10 | / | / |

Remaining list, next part
| entry | SMILES | Pemphigus Ab inh | Tb MetRS inh | Rce1 inh |
| --- | --- | --- | --- | --- |
| 41 | CC(C)NC(=O)N(C)C[C@@H]1Oc2ccc(NC(=O)Nc3cccc4ccccc34)cc2C(=O)N([C@@H](C)CO)C[C@@H]1C | / | / | / |
| 42 | C[C@H]1CCCCO[C@@H](CN(C)Cc2ccccc2)[C@@H](C)CN([C@@H](C)CO)C(=O)c2cc(NC(=O)c3ccccc3)ccc2O1 | / | / | / |
| 43 | C[C@@H]1CN([C@@H](C)CO)C(=O)Cc2cc(NS(=O)(=O)c3ccccc3)ccc2O[C@H]1CN(C)Cc1ccc(C(F)(F)F)cc1 | / | / | / |
| 44 | C[C@@H]1CN([C@@H](C)CO)C(=O)Cc2cc(NS(=O)(=O)c3ccccc3)ccc2O[C@@H]1CN(C)Cc1ccc(C(F)(F)F)cc1 | / | / | / |
| 45 | Cc1cccc(NC(=O)Cc2cccs2)n1 | 101 | -1 | i |
| 46 | O=C(CN1CCOCC1)NCC[C@H]1CC[C@H](NC(=O)Nc2ccc(F)cc2)[C@H](CO)O1 | / | / | / |
| 47 | O=C(CN1CCOCC1)NCC[C@@H]1CC[C@H](NC(=O)Nc2ccc(Cl)cc2)[C@@H](CO)O1 | / | / | / |
| 48 | O=C(C[C@@H]1C=C[C@@H](NC(=O)C2CC2)[C@H](CO)O1)NCC1CC1 | / | / | / |
| 49 | O=C(Cc1c[nH]c2ccccc12)N1CCc2ccccc21 | 97 | 0 | i |
| 50 | O=C(CSc1c[nH]c2ccccc12)N1CCCc2ccccc21 | 92 | 0 | i |

| entry | Yeast UUG start-1 | Arrestin-AP2 inh | Yeast UUG start-2 |
| --- | --- | --- | --- |
| 41 | 151* | / | i |
| 42 | 147* | / | i |
| 43 | 159* | / | i |
| 44 | -9 | / | / |
| 45 | 542* | 3 | 2 |
| 46 | 184* | / | i |
| 47 | 119* | / | i |
| 48 | -3 | / | / |
| 49 | 344* | 2 | -1 |
| 50 | -5 | 5 | / |
